Assay results from patent US6762045B2, “Membrane derived caspase-3, compositions comprising the same and methods of use therefor” (Idun Pharmaceuticals, Inc., priority 2000, dated 2004).

Chains of the proteins cited; added tags and fusions are not shown. Residues count along the entry.
UniProt P42574, 14-175 limits assumed: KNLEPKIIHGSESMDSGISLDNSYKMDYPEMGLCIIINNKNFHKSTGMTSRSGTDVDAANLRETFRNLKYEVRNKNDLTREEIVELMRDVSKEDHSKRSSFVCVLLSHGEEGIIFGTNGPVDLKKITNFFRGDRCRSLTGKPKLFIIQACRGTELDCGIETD
UniProt P42574, 176-277 limits assumed: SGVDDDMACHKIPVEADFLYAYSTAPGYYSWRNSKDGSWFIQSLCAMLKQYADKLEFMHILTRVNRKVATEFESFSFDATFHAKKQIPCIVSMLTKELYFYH

Assays:
[1] = target: purified membrane derived caspase-3 (Homo sapiens, UniProt P42574); assay: DEVD-AMC cleavage by affinity purified membrane derived caspase-3 from 697 cells; details: read-out: KM value for the purified caspase; reactivated affinity purified membrane derived caspase-3
[2] = target: membrane-derived caspases (Homo sapiens, UniProt P42574); assay: Kinetics of DEVD-amc hydrolysis by membrane-derived caspases; details: read-out: Km for hydrolysis of DEVD-amc by the membrane-derived caspases; substrate 1-200 μM

- Km [1]: 10 µM
- Km [2]: 10 µM
SMILES: CC(=O)N[C@@H](CC(=O)O)C(=O)N[C@@H](CCC(=O)O)C(=O)N[C@H](C(=O)N[C@@H](CC(=O)O)C(=O)Nc1ccc2c(C)cc(=O)oc2c1)C(C)C
